The text below walks through data of patent US7803826B2, “Imidazolidine derivatives” (Chugai Seiyaku Kabushiki Kaisha, priority 2004, dated 2010).

Chains of the proteins cited; added tags and fusions are not shown.
UniProt P10275, whole entry: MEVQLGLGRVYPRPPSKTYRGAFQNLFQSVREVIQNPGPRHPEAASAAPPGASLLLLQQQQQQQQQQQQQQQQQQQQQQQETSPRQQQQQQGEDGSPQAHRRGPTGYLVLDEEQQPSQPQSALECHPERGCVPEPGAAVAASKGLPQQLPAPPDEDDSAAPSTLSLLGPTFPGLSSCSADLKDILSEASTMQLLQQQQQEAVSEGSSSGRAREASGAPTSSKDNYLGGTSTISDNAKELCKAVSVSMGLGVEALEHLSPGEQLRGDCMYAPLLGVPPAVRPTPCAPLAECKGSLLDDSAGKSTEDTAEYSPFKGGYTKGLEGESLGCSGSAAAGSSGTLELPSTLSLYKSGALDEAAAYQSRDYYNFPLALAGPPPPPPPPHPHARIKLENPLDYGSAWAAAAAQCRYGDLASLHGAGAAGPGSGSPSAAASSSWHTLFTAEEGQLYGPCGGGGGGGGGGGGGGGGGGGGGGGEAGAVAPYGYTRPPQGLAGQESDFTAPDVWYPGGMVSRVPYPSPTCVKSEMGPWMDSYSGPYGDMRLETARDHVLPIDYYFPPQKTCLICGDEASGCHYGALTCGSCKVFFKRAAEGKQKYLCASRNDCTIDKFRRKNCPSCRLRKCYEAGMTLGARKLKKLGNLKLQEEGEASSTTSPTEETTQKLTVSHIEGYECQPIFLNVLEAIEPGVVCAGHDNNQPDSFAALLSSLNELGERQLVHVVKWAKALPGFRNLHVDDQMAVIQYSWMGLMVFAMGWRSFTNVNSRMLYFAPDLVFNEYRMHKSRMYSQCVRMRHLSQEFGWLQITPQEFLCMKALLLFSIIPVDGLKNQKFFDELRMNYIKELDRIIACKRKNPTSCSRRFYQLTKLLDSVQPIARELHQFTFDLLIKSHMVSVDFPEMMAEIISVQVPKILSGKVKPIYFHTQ

SMILES strings stand for the structures.

Assay [1] addresses T1, androgen receptor (Homo sapiens, UniProt P10275). Briefly: Investigation of agonist effects: androgen receptor reporter gene (MMTV-luciferase) assay in 11A11B2 cells. Format: cell-based. The following applies: compound concentration showing a transcription activity of 5% (0.1 nmol/L DHT = 100%, assay medium alone = 0%), 48 hours.
Assay [2] addresses T1, androgen receptor. Briefly: Investigation of antagonist effects: androgen receptor reporter gene (MMTV-luciferase) assay in 11A11B2 cells with 0.1 nmol/L DHT. Format: cell-based. The following applies: 48 hours, agonist transcription activity rate of Test Example 1 subtracted. (In general: A reporter such as luciferase makes a cellular process visible.)

Compound `Cc1c(N2C(=O)C(C)(C)N(CCCS(N)(=O)=O)C2=S)ccc(C#N)c1C(F)(F)F` showed an EC5 at androgen receptor [1] of 2000 nM. This compound showed a concentration for half-maximal inhibition (IC50) on androgen receptor [2] of 100 nM.

The IC50 is the point on the concentration scale where inhibition reaches its midpoint. A lower IC50 goes with greater potency.
